Reference: PubChem BioAssay AID504324 (Broad Institute, 2011)
This is a selection; strong and weak results do not stand in their true shares. Activity calls are given as the source filed them.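 The calls were made as follows: active = compounds lowering the signal whose fitted half-maximal concentration is at most ten times their top tested dose; inconclusive = flat curve with a 30 to 70% drop, or poor fit; inactive = rising signal, flat curve, or potency beyond limit.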

Assay: HIF pathway activation under zinc exposure, dose response, mechanism study for HIF pathway activator project, U2OS HRE-luc cells, zinc medium, dry powder (AID 504324)
Conditions: U2OS HRE-luciferase reporter, luminescence, at 38 µM (top of the series)
Outline: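 Assay system: human osteosarcoma U2OS cells stably expressing 3×HRE-driven luciferase reporter. Buffer or medium: phenol red-free DMEM, 10% FBS, plus 50 µM zinc sulfate. Compound dosing: 8-point, 3-fold compound series. Schedule: cells plated 24 h before dosing, compound exposure 24 h, 37 °C. Measured by: Steady-Glo luciferase luminescence.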

O=c1[nH]c2ccccc2n1C1CCN(Cc2ccc(O)c3ncccc23)CC1
activity change, negative = decrease: inactive: 30.7%
